Measurements from patent US10865384B2, “2,4,5-tri-substituted azole-based casein kinase 1 inhibitors as inducers for cardiomyogenesis” (AGENCY FOR SCIENCE, TECHNOLOGY AND RESEARCH, priority 2014, dated 2020).

Chains of the proteins cited; added tags and fusions are not shown. Lines headed by an entry give the natural chain unless they say otherwise; changes in a name come on top.
UniProt P48730: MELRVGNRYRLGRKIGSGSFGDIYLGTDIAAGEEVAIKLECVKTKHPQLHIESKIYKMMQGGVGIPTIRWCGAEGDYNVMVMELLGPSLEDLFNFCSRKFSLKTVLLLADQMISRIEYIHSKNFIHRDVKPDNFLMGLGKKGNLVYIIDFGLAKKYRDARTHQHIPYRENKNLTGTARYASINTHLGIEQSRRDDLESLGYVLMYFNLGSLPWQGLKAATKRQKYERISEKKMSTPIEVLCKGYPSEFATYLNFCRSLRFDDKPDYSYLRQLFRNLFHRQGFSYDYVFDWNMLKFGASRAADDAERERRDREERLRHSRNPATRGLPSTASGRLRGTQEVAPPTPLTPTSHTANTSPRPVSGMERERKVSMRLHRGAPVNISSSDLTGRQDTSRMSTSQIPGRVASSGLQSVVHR
UniProt P49674: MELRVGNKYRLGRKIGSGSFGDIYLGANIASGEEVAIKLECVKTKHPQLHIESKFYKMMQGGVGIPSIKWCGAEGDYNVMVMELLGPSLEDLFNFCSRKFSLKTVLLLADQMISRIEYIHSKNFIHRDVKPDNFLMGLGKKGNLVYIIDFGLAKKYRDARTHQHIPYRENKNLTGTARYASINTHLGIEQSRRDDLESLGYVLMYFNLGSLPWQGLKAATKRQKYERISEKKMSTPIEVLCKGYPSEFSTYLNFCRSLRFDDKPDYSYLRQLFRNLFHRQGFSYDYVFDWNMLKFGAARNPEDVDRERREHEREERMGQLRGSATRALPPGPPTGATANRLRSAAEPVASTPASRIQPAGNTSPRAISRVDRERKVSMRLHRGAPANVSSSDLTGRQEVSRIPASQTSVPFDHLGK

How the values were obtained:
[1] = target: CK1δ (Homo sapiens (Human), UniProt P48730); test: LanthaScreen Eu kinase binding assay, CK1δ; settings: read-out: IC50 CK1δ; Table 3
[2] = target: CK1ϵ (Homo sapiens (Human), UniProt P49674); test: LanthaScreen Eu kinase binding assay, CK1ϵ; settings: read-out: IC50 Ck1ε; Table 3

SMILES: NC(=O)c1ccc(-c2nc(-c3ccc4c(c3)OCO4)c(-c3ccccn3)[nH]2)cc1 [SB431542, reference compound]
- IC50 [1]: 174 nM
- IC50 [2]: 147 nM
